Test results reported in published antibiotic growth screens (doi:10.1038/s41589-023-01349-8).
The other results are listed elsewhere or left out.

These molecules were tested on A. baumannii ATCC 17978 (assay: relative growth (fraction of control); higher = less inhibition). Conditions: 50 µM.

SMILES | relative growth
Nc1ccc(-n2cc(CCC(=O)NO)nn2)cc1 | 1.1
OC[C@@H](O)[C@@H](O)[C@H](O)[C@@H](O)CO | 1.1
COc1cccc(S(=O)(=O)N(C)C[C@H]2Oc3cc(C#CCN(C)C)ccc3S(=O)(=O)N([C@H](C)CO)C[C@H]2C)c1 | 0.836
CN1CCN(C(=O)C[C@H]2C[C@@H]3c4cc(NC(=O)c5ccc6c(c5)OCO6)ccc4O[C@@H]3[C@H](CO)O2)CC1 | 1.04
CCCCOC(=O)CSc1n[nH]c(=O)[nH]c1=O | 0.921
Cc1ccc(S[C@]2(C(=O)NCCCN(C)C)CC(=O)N(C3CCCCC3)[C@@H]2c2ccc(CO)cc2I)cc1 | 0.986
O=C(C[C@H]1C=C[C@H](NC(=O)CN2CCOCC2)[C@@H](CO)O1)NC1CCCCC1 | 0.953
Cn1sc(=O)n(Cc2ccccc2)c1=O | 0.28
O=C(O)CC1(n2cnnn2)CCSCC1 | 1.07
CC(C)=CC1C(C(=O)O)C1(C)C (configuration not stated) | 0.907
[N-]=[N+]=Nc1ccccc1C[C@]1(C(=O)N2CCCCC2)N=C(c2ccc(OCCCO)cc2)O[C@H]1c1ccccc1 | 1.11
O=C(c1cccnc1)N1CCOCC1 | 1.34
OCC(S)CS (configuration not stated) | 1.76
O=C(N/N=C/[C@@H](O)[C@H](O)[C@H](O)CO)c1ccccc1O | 1.02
Cc1ccnn1-c1ccc(CN)cc1 | 1.07
Cl.Cl.NCCc1c[nH]cn1 | 0.961
O=C(C[C@H]1CC[C@@H](NS(=O)(=O)c2ccccc2)[C@@H](CO)O1)NCc1ccncn1 | 0.934
O=C(CN1CCOCC1)NCC[C@@H]1CC[C@@H](NC(=O)Nc2ccccc2)[C@H](CO)O1 | 1.05
CCCC#Cc1ccc2c(c1)O[C@H](CN(C)C(=O)c1cnccn1)[C@H](C)CN([C@H](C)CO)S2(=O)=O | 0.989
Cc1ccc(S(=O)(=O)N[C@@H]2CC[C@@H](CCNC(=O)CN3CCOCC3)O[C@@H]2CO)cc1 | 0.993
N=C(N)Nc1nc(CSCC/C(N)=N\S(N)(=O)=O)cs1 | 0.999
CC(C)c1c(O)ccc2c1CCC1C(C)(C)CCC[C@]21C (some centres not stated) | 1.01
CCCCCN(C)CCC(O)(P(=O)([O-])O)P(=O)(O)O.O.[Na+] | 1
Cn1cnc(S(=O)(=O)N[C@H]2CC[C@@H](CC(=O)NCC3CC3)O[C@@H]2CO)c1 | 1.09
O=c1c(O)nnc2n1CCN2c1ccccc1 | 0.873

SMILES | relative growth
COc1ccc(S(=O)(=O)N[C@@H]2CC[C@@H](CCNC(=O)CN3CCOCC3)O[C@@H]2CO)cc1 | 1.04
NCCOc1cccc(Cl)c1 | 0.984
NC(=O)C1(N2CCCCC2)CCN(CCCC(=O)c2ccc(F)cc2)CC1 | 0.974
O=c1[nH]c2ccccc2n2cnnc12 | 1.04
C[C@@H]1CC2C3C[C@H](F)C4=CC(=O)C=C[C@]4(C)[C@@]3(F)[C@@H](O)C[C@]2(C)[C@@]1(O)C(=O)COC(=O)C(C)(C)C (some centres not stated) | 1.06
C[C@@H](O)CN1C(=S)S[C@@H]2CS(=O)(=O)C[C@@H]21 | 0.953
Cl.NC[C@H](N)C(=O)O | 0.851
O=C(O)CCc1nc2ccccc2[nH]1 | 1.24
COc1ccc(S(=O)(=O)N[C@H]2C=C[C@@H](CC(=O)NCCc3ccncc3)O[C@@H]2CO)cc1 | 0.992
CC(C)C[C@H](N)C(=O)O | 0.85
Nc1nccs1 | 1.03
CN(CC(=O)NC1CCCC1)S(=O)(=O)c1ccc2c(c1)c(=O)n(C)c(=O)n2C | 1.04
C=CCNC(=O)[C@@H]1[C@H]2C(=O)O[C@H](c3ccccc3)[C@H](c3ccccc3)N2[C@H](c2ccc(OCCO)cc2)[C@@]12C(=O)Nc1ccc(C#CC3(O)CCCCCC3)cc12 | 1.15
CCOc1ccc(S(N)(=O)=O)cc1 | 1
NC(=O)c1cccnc1 | 1.02
N=c1cc(N2CCCCC2)nc(N)n1OS(=O)(=O)O | 1.05
Cc1ccc(S(=O)(=O)N[C@@H]2CC[C@H](CC(=O)NCc3ccc(Cl)c(Cl)c3)O[C@@H]2CO)cc1 | 0.805
C=C(C)C1=NC(C)(C)C[C@H](C)O1 | 1.1
Cc1nnc(=O)[nH]c1NNc1ccccc1 | 0.745
CNC(=O)C(=O)Nc1cc(Cl)ccc1C#N | 0.959
Cn1cnc(S(=O)(=O)N2C[C@@H](O)COC[C@@H]3O[C@@H](CC(=O)NC4CCC4)CC[C@H]32)c1 | 0.949
Cn1c(=O)c2c(ncn2CC(O)CO)n(C)c1=O (configuration not stated) | 1.13
CC(C)c1nc2cc3sc(C(C)C)nc3cc2s1 | 1.21
O=C(C[C@H]1CC[C@@H](NC(=O)c2cccnc2)[C@@H](CO)O1)NCCN1CCCCC1 | 1.04
O=C(C[C@H]1CC[C@@H](NS(=O)(=O)c2ccccc2F)[C@H](CO)O1)NCCCN1CCOCC1 | 0.849

SMILES | relative growth
COc1ccc2c(c1OC)C(=O)O[C@H]2[C@H]1c2c(cc3c(c2OC)OCO3)CCN1C.Cl | 0.898
CC(=O)O.Cc1c(-c2ccc(O)cc2)n(Cc2ccc(OCCN3CCCCCC3)cc2)c2ccc(O)cc12 | 0.807
COc1cccc(NC(=O)N[C@@H]2C=C[C@H](CC(=O)N3CCOCC3)O[C@H]2CO)c1 | 0.893
CC(C)(Oc1ccc(C2CC2(Cl)Cl)cc1)C(=O)O (configuration not stated) | 1.32
C[C@H](CO)N1C[C@H](C)[C@@H](CN(C)S(=O)(=O)c2ccc3ccccc3c2)OCc2cnnn2CCCC1=O | 0.974
C#CCN([C@H](/C=C/C1CC1)[C@@H](O)CCn1cc(-c2ccc(C(=O)NO)s2)nn1)[C@@H](Cc1ccccc1)C(=O)OC | 1.13
O=C(CN1CCOCC1)N[C@H]1CC[C@H](CCNC(=O)C2CCCCC2)O[C@@H]1CO | 1.03
COc1cccc(S(=O)(=O)N[C@@H]2C=C[C@H](CC(=O)NC3CCC3)O[C@H]2CO)c1 | 1.06
N[C@H]1CS(=O)(=O)c2ccccc21 | 1.11
CNC[C@H](O)c1cccc(O)c1.Cl | 1.15
O=C(C[C@@H]1CC[C@H]2[C@@H](COC[C@@H](O)CN2C(=O)c2ccccc2)O1)N1CCOCC1 | 0.998
CC(C)(C)OC(=O)CC[C@@]12N=C(c3ccc(OCCCO)cc3)O[C@@H]1c1ccccc1CN(C(=O)c1ccccc1)C2=O | 1.06
Cl.O=C(Nc1ccccc1)OCC(CN1CCCCC1)OC(=O)Nc1ccccc1 (configuration not stated) | 0.749
C[C@H]1CN([C@@H](C)CO)C(=O)CCCn2nncc2CO[C@@H]1CN(C)C(=O)Nc1cccc2ccccc12 | 0.918
COc1ccc2c(c1)OC(C)(C)C[C@@H]2N | 1.02
O=c1cc(Cl)[nH]c(=O)[nH]1 | 1.01
O=C(NCCO)c1cccc(C(=O)NCCO)c1 | 1.01
NCCN1C(=O)c2[nH]nc(-c3ccccc3)c2[C@H]1c1ccccc1 | 0.966
CC/N=C1\S[C@H](C(N)=O)CC(=O)N1CC | 1.05
COc1nn(C)cc1C(=O)N1CCN(C)CC1 | 0.986
COc1cccc(NC(=O)N[C@H]2C=C[C@H](CC(=O)N3CCN(C)CC3)O[C@@H]2CO)c1 | 0.952
CC(C)NC(=O)N[C@@H]1CC[C@@H](CCN)O[C@H]1CO | 0.941
CC[C@@H](CN)Cc1ccccc1 | 1.02
CO[C@@H]1CN(C)C(=O)c2cc(NS(C)(=O)=O)ccc2OC[C@@H](C)N(C(=O)C2CCCCC2)C[C@@H]1C | 0.986
C[C@@]1(C(=O)O)CCCC[C@@H]1N | 0.92

SMILES | relative growth
O=C(C[C@H]1CC[C@@H]2[C@H](COC[C@H](O)CN2C(=O)Nc2cc(Cl)cc(Cl)c2)O1)N1CCOCC1 | 0.968
O=C1C(=CNC(CO)(CO)CO)C(=O)c2ccccc21 | 0.974
O=C(N[C@@H]1CC[C@@H](CCNS(=O)(=O)c2ccc(F)cc2)O[C@@H]1CO)C1CC1 | 1.01
C[C@@H]1CN([C@@H](C)CO)S(=O)(=O)c2ccc(/C=C/c3ccccc3)cc2O[C@H]1CN(C)C(=O)Nc1cc(F)ccc1F | 1.02
c1ccc(-c2nc3ccccc3o2)nc1 | 0.901
O=c1cc(-c2ccccc2)oc2ccc(O)cc12 | 0.899
C[C@@H]1CN([C@@H](C)CO)S(=O)(=O)c2ccc(Br)cc2O[C@H]1CN(C)C(=O)c1cnccn1 | 1.1
CCC(=O)Nc1ccc2c(c1)OC[C@H](C)N(C(=O)CN1CCOCC1)C[C@@H](C)[C@H](OC)CN(C)C2=O | 1.08
CCC(=O)Oc1ccc2c(c1)CCC1C2CC[C@@]2(C)C1C[C@@H](OC(=O)CC)[C@@H]2OC(=O)CC (some centres not stated) | 1.1
C[C@H](CO)N1C[C@H](C)[C@H](CN(C)Cc2cncnc2)Oc2cc(C#CC3CCCC3)ccc2S1(=O)=O | 0.773
Clc1ccc(/N=C/c2ccc(Br)o2)cc1Cl | 1.06
C=CCC[C@@H](Cc1ccc(F)cc1)C(=O)OC[C@@H](NC(=O)[C@@H](CC=C)CC(=O)N[C@@H](CO)Cc1ccccc1)C(C)(C)C | 0.829
Cc1ccccc1S(=O)(=O)N(C)C[C@@H]1Oc2ccc(NC(=O)Nc3ccc(Cl)c(Cl)c3)cc2CC(=O)N([C@@H](C)CO)C[C@@H]1C | 1.15
O=C(c1ccc(F)cc1)N1c2ccccc2C=Cc2ccccc21 | 0.924
CCCNS(=O)(=O)c1c[nH]c(C(=O)OC)c1 | 1.1
Nc1ccc(S(N)(=O)=O)cc1 | 0.993
Oc1ccccc1/N=C/c1ccncc1 | 0.503
NC[C@H](O)c1ccc(O)c(O)c1.O=C(O)[C@H](O)[C@@H](O)C(=O)O | 1.09
COc1ccc(C(=O)Nc2ccc(CN3C(=O)[C@]4(O[C@H](CC(=O)N5Cc6ccccc6C[C@H]5CO)[C@@H]([Si](C)(C)c5ccc(OC)cc5)[C@@H]4C)c4ccccc43)cc2)cc1 | 0.979
Cc1ccc(S(=O)(=O)N(C)C[C@@H]2Oc3c(NC(=O)Nc4cccc5ccccc45)cccc3C(=O)N([C@H](C)CO)C[C@H]2C)cc1 | 1.01
COc1ccc2c(c1)OCC(Cc1ccc(OC)c(OC)c1)C2=O (configuration not stated) | 1.03
CC1(C)C2CC[C@@]3(C)C4CC[C@@]5(C)CC[C@](C)(C(=O)[O-])C[C@H]5C4=CC(=O)C3[C@@]2(C)CC[C@@H]1O[C@@H]1O[C@H](C(=O)[O-])[C@@H](O[C@@H]2O[C@H](C(=O)[O-])[C@@H](O)[C@H](O)[C@H]2O)[C@H](O)[C@H]1O.[NH4+].[NH4+].[NH4+] (some centres not stated) | 1.02
